Experimental data from patent EP0791072B1, “PROCESS FOR DETERMINING THE ACTIVITY OF SPECIFIC PHOSPHOTYROSINE PHOSPHATASES AND SPECIFIC EFFECTORS THEREOF IN INTACT CELLS” (Max-Planck-Gesellschaft zur Förderung der Wissenschaften …, priority 1994, dated 1996).

Test system: PDGF-Rezeptor-gerichtete(n) PTPase(n)
Experiment: Effector test for PDGF receptor-directed PTPase activity in intact Swiss 3T3 cells (AG 1296 test, quantified immunoblots)
Format: cell-based, Maus
Conditions: effector 2 mM, relative dephosphorylation of PDGF receptor after 5 min, control without effector = 100 %

## Na-Orthovanadat
  Relative PDGF Rezeptor-gerichtete PTPase-Aktivität (% der Kontrolle): 34 % der Kontrolle
